Chains of the proteins cited; added tags and fusions are not shown. Residues count along the entry.
UniProt P51449, 269-508: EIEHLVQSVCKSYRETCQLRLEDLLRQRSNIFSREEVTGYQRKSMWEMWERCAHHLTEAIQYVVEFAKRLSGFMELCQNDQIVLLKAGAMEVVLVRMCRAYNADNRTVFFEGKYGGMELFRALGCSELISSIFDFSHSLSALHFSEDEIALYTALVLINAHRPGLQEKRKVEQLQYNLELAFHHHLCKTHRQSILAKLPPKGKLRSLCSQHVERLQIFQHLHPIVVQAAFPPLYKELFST

According to patent publication US9487490B2, “3-cyclohexenyl and cyclohexyl substituted indole and indazole compounds as RORgammaT inhibitors and uses thereof” (Merck Sharp & Dohme Corp., priority 2012, dated 2016):

Each molecule was assayed against human RORgammaT-Ligand Binding Domain (LBD) (Homo sapiens (Human), UniProt P51449) (assay: RORγ-Ligand Binding Domain TR-FRET assay (co-activator peptide SRC1_2 recruitment)). Details: HIS-tagged RORγ-LBD 3 nM, biotinylated SRC1 LXXLL peptide 100 nM, incubated overnight at 4° C., 665 nm/615 nm signal quotient.
Assay type: biochemical
Source text: Activation of RORgammaT activity can be measured using, e.g., biochemical TR-FRET assay. In such an assay, interaction of cofactor-derived peptides with human RORgammaT-Ligand Binding Domain (LBD) can be measured.
To identify novel antagonists of RORgammaT, an assay was developed which employs the interaction of RORgammaT with its co-activator peptide SRC1_2. […] The RORγ-Ligand Binding Domain TR-FRET Assay was run according to the following protocol.
HIS-tagged RORγ-LBD protein was expressed in SF9 cells using a baculovirus expression system. The RORγ-LBD protein was purified by glutathione sepharose chromatography. Separately, SF9 cells not expressing any recombinant protein were lysed and the lysate was added to the purified RORγ-LBD at 0.25 μl lysate (from 10,000 SF9 cells)/nM purified protein. The mixture was then diluted in assay buffer (50 mM Tris pH 7.0, 50 mM KCl, 1 mM EDTA, 0.1 mM DTT) to obtain RORγ-LBD final concentration of 3 nM in 384-well assay plate.
Compounds to be tested were injected to the assay plate using Acoustic Droplet Ejection technology by Echo 550 liquid handler (Labcyte, Calif.).
`O=C(c1c(Cl)cccc1C(F)(F)F)n1nc([C@H]2CC[C@H](C(=O)O)CC2)c2c(F)cccc21` [Example 8A, (trans)-4-(1-(2-chloro-6-(trifluoromethyl)benzoyl)-4-fluoro-1H-indazol-3-yl)cyclohexanecarboxylic acid] showed an IC50 of 16 nM. With `O=C(c1c(Cl)cccc1C(F)(F)F)n1nc([C@H]2CC[C@@H](C(=O)O)CC2)c2c(F)cccc21` [Example 8B, (cis)-4-(1-(2-chloro-6-(trifluoromethyl)benzoyl)-4-fluoro-1H-indazol-3-yl)cyclohexanecarboxylic acid] the IC50 was 505 nM. `O=C(O)C1CC=C(c2nn(C(=O)c3c(Cl)cccc3C3CC3)c3cccc(F)c23)CC1` (single isomer, unassigned) [Example 3B, (S or R)-4-(1-(2-chloro-6-cyclopropylbenzoyl)-4-fluoro-1H-indazol-3-yl)cyclohex-3-enecarboxylic acid] gave an IC50 of 5 nM. `COC1CCN(C(=O)c2ccc3c(C4=CCC(C(=O)O)CC4)nn(C(=O)c4c(Cl)cccc4C(F)(F)F)c3c2)C1` (centres unmarked) [Example 4I, 4-(1-(2-chloro-6-(trifluoromethyl)benzoyl)-6-(3-methoxypyrrolidine-1-carbonyl)-1H-indazol-3-yl)cyclohex-3-enecarboxylic acid] gave an IC50 of 3 nM. `O=C(O)C1CC=C(c2nn(C(=O)c3c(Cl)cccc3C3CC3)c3cccc(F)c23)CC1` (single isomer, unassigned) [Example 3A, (R or S)-4-(1-(2-chloro-6-cyclopropylbenzoyl)-4-fluoro-1H-indazol-3-yl)cyclohex-3-enecarboxylic acid] gave an IC50 of 6 nM.
